Test results from patent US9566330B2, “Immunogenic composition for immune system modulation and use thereof, method for treating and preventing diseases, method for inducing cell regeneration and method for restoring immune response” (priority 2011, dated 2017).

Assays:
[1] = high dosage (600,000-720,000 UI/Kg) in clinical practice; cited from earlier work
[2] = tested on: B16-F10 melanoma cells; settings: DECA-IL-2 group, IL-2 20,000 UI twice a day

IL-2: Interleukin-2
toxic symptoms observed [1]: comparable to the induction of a controlled state of septic shock
tolerance to the repeated treatment with IL-2 [2]: good tolerance
